The record followed here is article PMC7293020 (Nucleic Acids Research, 2020).

The target in this assay is T1, Escherichia coli exonuclease I (ExoI) (Escherichia coli, UniProt P04995 1-475).
T1 sequence (looked up): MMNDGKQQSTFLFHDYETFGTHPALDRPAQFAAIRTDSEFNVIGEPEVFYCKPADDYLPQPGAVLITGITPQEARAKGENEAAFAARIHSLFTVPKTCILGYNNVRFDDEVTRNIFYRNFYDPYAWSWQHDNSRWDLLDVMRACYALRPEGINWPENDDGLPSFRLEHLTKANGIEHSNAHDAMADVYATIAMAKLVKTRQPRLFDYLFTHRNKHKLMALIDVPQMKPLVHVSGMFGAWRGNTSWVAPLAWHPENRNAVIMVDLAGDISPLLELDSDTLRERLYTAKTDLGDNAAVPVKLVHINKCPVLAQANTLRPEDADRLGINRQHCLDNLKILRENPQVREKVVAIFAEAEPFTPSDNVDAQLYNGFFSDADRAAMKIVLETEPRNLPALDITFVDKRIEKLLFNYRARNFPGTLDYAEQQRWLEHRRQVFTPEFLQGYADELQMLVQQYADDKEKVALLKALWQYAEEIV
As to the kind of experiment: ITC. (In ITC the heat of successive injections is recorded.)

B1: Escherichia coli single-stranded DNA-binding protein (EcSSB) (natural protein, UniProt P0AGE0 1-178, looked up)
chain: MASRGVNKVILVGNLGQDPEVRYMPNGGAVANITLATSESWRDKATGEMKEQTEWHRVVLFGKLAEVASEYLRKGSQVYIEGQLRTRKWTDQSGQDRYTTEVVVNVGGTMQMLGGRQGGGAPAGGNIGGGQPQGGWGQPQQPQGGNQFSGGAQSRPQQSAPAAPSNEPPMDFDDDIPF
Regarding B1, the binding result is listed as “binds”.
